These are literature values, as cited in patent publication US11672759B2 (priority 2017, dated 2023).

The conditions of data set [1]: at 20° C.
For data set [2] the following is noted: in vivo.

`COc1cc2c(c(OC)c1OC)-c1ccc(OC)c(=O)cc1[C@@H](NC(C)=O)CC2` [colchicine, N-((7S)-5,6,7,9-tetrahydro-1,2,3,10-tetramethoxy-9-oxobenzo(a)heptalen-7-yl)-acetamide]: the pK in data set [1] was 12.35. In data set [2], the “plasma levels in the therapeutic range” value was 0.5 to 3 ng/mL.
